Results reported in ChEMBL document CHEMBL3045492, “Regioselective synthesis of novel 3-alkoxy (phenyl) thiophosphorylamido-2-(per-O-acetylglycosyl-1'-imino)thiazolidine-4-one derivatives from O-alkyl N4-glycosyl(thiosemicarbazido)phosphonothioates” (2009).
Activity calls are given as the source filed them.

Key:
Echinochloa crus-galli = experiment: Herbicidal activity against Echinochloa crus-galli (barnyard grass) assessed as growth inhibition at 1.5 kg/ha relative to control
[1] = system: Brassica rapa subsp. oleifera; experiment: Herbicidal activity against Brassica rapa subsp. oleifera assessed as growth inhibition at 1.5 kg/ha relative to control
Digitaria sanguinalis = experiment: Herbicidal activity against Digitaria sanguinalis (hairy crabgrass) assessed as growth inhibition at 1.5 kg/ha relative to control
Amaranthus retroflexus = experiment: Herbicidal activity against Amaranthus retroflexus assessed as growth inhibition at 1.5 kg/ha relative to control

Measured: growth inhibition (GI)

CCCOP(=S)(NN1C(=O)CS/C1=N/[C@@H]1O[C@H](COC(C)=O)[C@@H](OC(C)=O)[C@H](OC(C)=O)[C@H]1OC(C)=O)c1ccccc1 (stereo partly drawn)
active: all assays above

CCOP(=S)(NN1C(=O)CS/C1=N/[C@@H]1OC[C@@H](OC(C)=O)[C@H](OC(C)=O)[C@H]1OC(C)=O)c1ccccc1 (stereo partly drawn)
active: all assays above

CCOP(=S)(NN1C(=O)CS/C1=N/[C@@H]1O[C@H](COC(C)=O)[C@@H](O[C@H]2O[C@H](CC(C)=O)[C@@H](OC(C)=O)[C@H](OC(C)=O)[C@H]2OC(C)=O)[C@H](OC(C)=O)[C@H]1OC(C)=O)OCC
active: all assays above

COP(=S)(NN1C(=O)CS/C1=N\[C@@H]1O[C@H](COC(C)=O)[C@H](OC(C)=O)[C@H](OC(C)=O)[C@H]1OC(C)=O)c1ccccc1 (stereo partly drawn)
active: all assays above

CCOP(=S)(NN1C(=O)CS/C1=N/[C@@H]1O[C@H](COC(C)=O)[C@@H](OC(C)=O)[C@H](OC(C)=O)[C@H]1OC(C)=O)OCC
active: all assays above

COP(=S)(NN1C(=O)CS/C1=N/[C@@H]1OC[C@@H](OC(C)=O)[C@H](OC(C)=O)[C@H]1OC(C)=O)OC
active: all assays above

COP(=S)(NN1C(=O)CS/C1=N/[C@@H]1O[C@H](COC(C)=O)[C@@H](OC(C)=O)[C@H](OC(C)=O)[C@H]1OC(C)=O)c1ccccc1 (stereo partly drawn)
active: Echinochloa crus-galli | Digitaria sanguinalis | Amaranthus retroflexus

COP(=S)(NN1C(=O)CS/C1=N/[C@@H]1OC[C@@H](OC(C)=O)[C@H](OC(C)=O)[C@H]1OC(C)=O)c1ccccc1 (stereo partly drawn)
active: all assays above

CCOP(=S)(NN1C(=O)CS/C1=N\[C@@H]1O[C@H](COC(C)=O)[C@H](OC(C)=O)[C@H](OC(C)=O)[C@H]1OC(C)=O)OCC
active: all assays above

CCOP(=S)(NN1C(=O)CS/C1=N/[C@@H]1O[C@H](COC(C)=O)[C@@H](O[C@@H]2O[C@H](CC(C)=O)[C@H](OC(C)=O)[C@H](OC(C)=O)[C@H]2OC(C)=O)[C@H](OC(C)=O)[C@H]1OC(C)=O)OCC
active: all assays above

CCOP(=S)(NN1C(=O)CS/C1=N/[C@@H]1OC[C@@H](OC(C)=O)[C@H](OC(C)=O)[C@H]1OC(C)=O)OCC
active: all assays above
